Experimental data published in patent US20230235282A1, “SERUM-FREE INDUCTION METHOD FOR SENSORY NEURON CELL” (IREGENE THERAPEUTICS LTD, priority 2020, published 2023).

Amino acid sequences for entries named in this document (tags omitted).
UniProt Q15858, whole entry: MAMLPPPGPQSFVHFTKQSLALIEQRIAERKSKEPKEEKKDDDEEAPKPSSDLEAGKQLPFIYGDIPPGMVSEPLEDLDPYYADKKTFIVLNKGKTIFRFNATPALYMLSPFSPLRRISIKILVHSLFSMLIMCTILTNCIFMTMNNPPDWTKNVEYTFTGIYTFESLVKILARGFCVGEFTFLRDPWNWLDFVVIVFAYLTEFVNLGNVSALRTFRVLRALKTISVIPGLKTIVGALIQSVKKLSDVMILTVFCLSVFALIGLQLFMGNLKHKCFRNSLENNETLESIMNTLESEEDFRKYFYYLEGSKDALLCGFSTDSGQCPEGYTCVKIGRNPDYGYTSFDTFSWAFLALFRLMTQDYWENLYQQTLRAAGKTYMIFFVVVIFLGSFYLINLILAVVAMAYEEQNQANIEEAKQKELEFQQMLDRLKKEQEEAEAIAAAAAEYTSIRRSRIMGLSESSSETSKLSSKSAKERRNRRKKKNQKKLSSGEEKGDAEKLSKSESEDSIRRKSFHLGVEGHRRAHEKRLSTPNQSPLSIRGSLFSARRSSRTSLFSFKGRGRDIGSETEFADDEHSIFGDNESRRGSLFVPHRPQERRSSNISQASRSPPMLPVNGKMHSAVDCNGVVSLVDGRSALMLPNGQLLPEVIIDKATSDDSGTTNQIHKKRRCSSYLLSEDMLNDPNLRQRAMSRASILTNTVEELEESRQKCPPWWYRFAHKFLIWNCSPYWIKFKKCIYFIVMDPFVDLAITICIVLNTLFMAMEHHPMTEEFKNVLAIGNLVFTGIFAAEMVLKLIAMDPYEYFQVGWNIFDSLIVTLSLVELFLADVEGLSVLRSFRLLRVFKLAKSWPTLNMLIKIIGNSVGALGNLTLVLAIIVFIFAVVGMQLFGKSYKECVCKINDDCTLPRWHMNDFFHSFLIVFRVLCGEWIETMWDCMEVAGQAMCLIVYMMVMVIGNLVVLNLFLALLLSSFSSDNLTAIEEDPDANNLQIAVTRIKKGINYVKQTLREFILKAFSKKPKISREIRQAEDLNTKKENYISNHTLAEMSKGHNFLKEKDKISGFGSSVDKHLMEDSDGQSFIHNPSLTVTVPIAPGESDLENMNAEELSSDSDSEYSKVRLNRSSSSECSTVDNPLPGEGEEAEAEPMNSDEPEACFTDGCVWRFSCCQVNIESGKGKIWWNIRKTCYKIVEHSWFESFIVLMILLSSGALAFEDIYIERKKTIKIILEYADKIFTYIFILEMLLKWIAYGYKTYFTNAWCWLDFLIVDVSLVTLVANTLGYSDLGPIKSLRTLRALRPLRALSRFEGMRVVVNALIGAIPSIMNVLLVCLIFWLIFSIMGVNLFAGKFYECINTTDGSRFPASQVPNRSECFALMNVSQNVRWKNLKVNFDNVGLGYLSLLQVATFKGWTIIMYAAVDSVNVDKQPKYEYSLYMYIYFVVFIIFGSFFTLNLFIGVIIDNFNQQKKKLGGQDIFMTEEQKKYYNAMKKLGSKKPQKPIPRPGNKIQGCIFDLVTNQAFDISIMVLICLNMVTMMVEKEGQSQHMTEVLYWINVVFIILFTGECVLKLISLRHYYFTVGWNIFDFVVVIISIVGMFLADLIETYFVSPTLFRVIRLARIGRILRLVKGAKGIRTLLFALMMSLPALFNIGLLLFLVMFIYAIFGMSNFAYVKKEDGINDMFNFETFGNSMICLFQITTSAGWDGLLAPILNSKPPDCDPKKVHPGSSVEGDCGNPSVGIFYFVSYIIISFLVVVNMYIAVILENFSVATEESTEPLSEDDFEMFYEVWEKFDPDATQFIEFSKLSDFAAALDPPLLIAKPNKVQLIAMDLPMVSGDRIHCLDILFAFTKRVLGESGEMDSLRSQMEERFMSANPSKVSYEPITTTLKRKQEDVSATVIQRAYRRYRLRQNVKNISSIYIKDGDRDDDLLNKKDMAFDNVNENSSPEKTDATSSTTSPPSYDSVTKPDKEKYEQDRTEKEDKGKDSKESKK

Target: T1, sodium ion channel 1.7 (Homo sapiens, UniProt Q15858)
T1 construct: endogenous in cells; host or cells: sensory neurons induced from human fibroblast-derived iPSCs
Test: MEA spontaneous discharge after PF-05089771
Assay type: cell-based

CHIR98014
electrophysiological strength of sodium ion channels of induced cells: significantly improved
